Patent US10918643B2, “No-donors for the treatment of cerebrovascular vasospasms after brain hemorrhage” (Westfaelische Wilhelms-Universitaet Muenster, priority 2015, dated 2021)
Some compounds may have been tested in ways that are not shown here.

Assay: Monitoring of MAP, ICP and side effects in the SAH patient
Type: in vivo, human
Conditions: each SNP bolus

Substance: sodium nitroprusside
- met-hemoglobin in blood gases / clinical signs of cyanide poisoning: without a rise of met-hemoglobin in blood gases or clinical signs of cyanide poisoning
